Assay results: patent US20100304418A1, “Compositions and Methods for Monitoring Flow Through Fluid Conducting and Containment Systems” (priority 2007, published 2010)

Columns and labels:
[1] = test system: Skeletonema costatum; test: Toxicity to marine unicellular algae, ISO DP 10253 (1998) Standard Method; conditions: at 4462.48 mg/L
[2] = Robustness of biotin in contact with corrosion inhibitor; conditions: 50 mM, 1:10 with corrosion inhibitor TROS787c, 2 hours, then 1:5000 in formation water

SMILES: O=C(O)CCCC[C@@H]1SC[C@@H]2NC(=O)N[C@@H]21 [biotin]
- toxic effect to S. costatum [1]: no toxic effect
- effect of corrosion inhibitor on biotin [2]: No significant affect
